Sequences of proteins named here, by UniProt entry; tags and fusion partners are left off.
UniProt P51617, whole entry: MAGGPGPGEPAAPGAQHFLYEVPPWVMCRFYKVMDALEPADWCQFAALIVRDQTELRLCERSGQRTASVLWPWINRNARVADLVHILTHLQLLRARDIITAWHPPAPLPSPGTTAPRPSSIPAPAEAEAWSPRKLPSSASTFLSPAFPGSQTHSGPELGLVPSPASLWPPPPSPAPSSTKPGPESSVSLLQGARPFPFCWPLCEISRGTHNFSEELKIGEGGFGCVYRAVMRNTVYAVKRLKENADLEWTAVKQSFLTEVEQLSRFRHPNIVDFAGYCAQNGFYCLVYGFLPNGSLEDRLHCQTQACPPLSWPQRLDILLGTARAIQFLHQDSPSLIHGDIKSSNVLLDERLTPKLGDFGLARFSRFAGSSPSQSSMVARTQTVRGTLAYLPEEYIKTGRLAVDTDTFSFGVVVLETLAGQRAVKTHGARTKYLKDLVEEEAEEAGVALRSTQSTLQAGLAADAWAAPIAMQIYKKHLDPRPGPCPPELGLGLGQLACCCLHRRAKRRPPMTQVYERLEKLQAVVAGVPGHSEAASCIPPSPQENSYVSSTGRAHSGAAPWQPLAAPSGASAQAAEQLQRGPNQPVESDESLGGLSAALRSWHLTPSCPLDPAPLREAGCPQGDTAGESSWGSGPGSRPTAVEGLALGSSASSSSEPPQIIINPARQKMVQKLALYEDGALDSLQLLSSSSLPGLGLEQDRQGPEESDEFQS

According to ChEMBL document CHEMBL5726610, “Quinazolines as potassium ion channel inhibitors” (2019):

Assays:
[1] = target: Interleukin-1 receptor-associated kinase 1 (Homo sapiens, UniProt P51617); assay: Caliper Kinase Assay: The analyses were performed in U-bottom 384-well plates. The final assay volume was 30 μl prepared from 15 μl additions of enzyme and substrates (fluoresceinated peptide and ATP) and test compounds in assay buffer (20 mM HEPES pH 7.4, 10 mM MgCl2, 0.015% Brij35 and 4 mM DTT). The reaction was initiated by the combination of purified protein kinase with substrates and test …
[2] = target: T1, Nuclear receptor subfamily 2 group C member 2 (Homo sapiens, UniProt P49116); assay: as above
T1 sequence (P49116 whole entry): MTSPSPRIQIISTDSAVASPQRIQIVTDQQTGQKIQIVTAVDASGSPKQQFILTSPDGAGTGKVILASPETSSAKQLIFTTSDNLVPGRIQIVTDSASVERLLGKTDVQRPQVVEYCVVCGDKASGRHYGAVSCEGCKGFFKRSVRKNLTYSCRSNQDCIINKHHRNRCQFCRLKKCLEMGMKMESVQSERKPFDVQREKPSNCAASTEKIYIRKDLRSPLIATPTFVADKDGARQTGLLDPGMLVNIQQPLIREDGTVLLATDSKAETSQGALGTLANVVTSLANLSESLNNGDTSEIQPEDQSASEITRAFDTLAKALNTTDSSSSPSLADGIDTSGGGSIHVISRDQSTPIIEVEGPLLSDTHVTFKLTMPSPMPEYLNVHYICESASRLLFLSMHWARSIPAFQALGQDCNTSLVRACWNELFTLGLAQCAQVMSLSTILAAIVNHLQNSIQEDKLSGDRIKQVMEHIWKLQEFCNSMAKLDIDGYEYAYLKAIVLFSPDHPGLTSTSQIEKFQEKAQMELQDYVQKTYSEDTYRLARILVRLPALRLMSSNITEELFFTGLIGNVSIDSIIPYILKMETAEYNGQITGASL

IC50 [1]: 50 µM
IC50 [2]: 50 µM
Compound: Oc1nc(-c2cncnc2)nc2cccc(-c3ccccc3)c12.c1ccc(-c2cccc3nc(-c4cncnc4)nc(NCc4ccccn4)c23)cc1
